These are literature values, as cited in publication PMC4416786, “Validation of a P-Glycoprotein (P-gp) Humanized Mouse Model by Integrating Selective Absolute Quantification of Human MDR1, Mouse Mdr1a and Mdr1b Protein Expressions with In Vivo Functional Analysis for Blood-Brain Barrier Transport” (PLoS ONE, 2015).

Sequences of proteins named here, by UniProt entry; tags and fusion partners are left off.
UniProt P21447, whole entry: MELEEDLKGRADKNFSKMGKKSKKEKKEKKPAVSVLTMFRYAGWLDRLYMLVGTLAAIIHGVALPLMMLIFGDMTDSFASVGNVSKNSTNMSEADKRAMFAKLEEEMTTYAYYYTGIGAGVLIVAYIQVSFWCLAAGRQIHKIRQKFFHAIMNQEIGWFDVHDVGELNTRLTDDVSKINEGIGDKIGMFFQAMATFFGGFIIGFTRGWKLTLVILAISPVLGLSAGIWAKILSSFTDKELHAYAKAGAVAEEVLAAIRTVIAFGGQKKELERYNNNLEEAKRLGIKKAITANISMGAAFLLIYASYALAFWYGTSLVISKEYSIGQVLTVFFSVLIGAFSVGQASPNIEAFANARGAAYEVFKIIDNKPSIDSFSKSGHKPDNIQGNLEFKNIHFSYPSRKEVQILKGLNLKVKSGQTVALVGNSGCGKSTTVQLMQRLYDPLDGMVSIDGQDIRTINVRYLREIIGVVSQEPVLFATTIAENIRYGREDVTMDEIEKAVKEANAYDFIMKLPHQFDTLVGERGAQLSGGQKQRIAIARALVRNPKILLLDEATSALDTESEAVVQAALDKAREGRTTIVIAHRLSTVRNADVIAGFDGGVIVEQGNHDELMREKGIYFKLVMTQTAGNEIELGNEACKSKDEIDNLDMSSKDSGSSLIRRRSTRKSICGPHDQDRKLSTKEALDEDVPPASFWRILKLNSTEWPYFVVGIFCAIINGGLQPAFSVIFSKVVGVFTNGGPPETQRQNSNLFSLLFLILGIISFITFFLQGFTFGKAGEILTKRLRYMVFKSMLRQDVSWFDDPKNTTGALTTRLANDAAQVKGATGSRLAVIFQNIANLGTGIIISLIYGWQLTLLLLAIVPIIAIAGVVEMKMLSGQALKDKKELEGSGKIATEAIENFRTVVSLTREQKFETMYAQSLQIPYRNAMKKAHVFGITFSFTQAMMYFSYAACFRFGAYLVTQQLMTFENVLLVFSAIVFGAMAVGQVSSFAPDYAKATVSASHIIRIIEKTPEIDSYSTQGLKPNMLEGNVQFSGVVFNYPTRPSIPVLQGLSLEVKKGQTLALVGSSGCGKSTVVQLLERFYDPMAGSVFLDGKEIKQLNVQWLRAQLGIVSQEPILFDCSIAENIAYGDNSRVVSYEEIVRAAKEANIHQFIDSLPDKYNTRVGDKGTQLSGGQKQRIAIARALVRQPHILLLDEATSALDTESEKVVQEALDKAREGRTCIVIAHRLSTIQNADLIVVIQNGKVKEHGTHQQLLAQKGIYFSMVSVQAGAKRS

This data set addresses T1, P-gp (Mus musculus, UniProt P21447).
T1 construct: hMDR1 and C57BL/6 WT mice; from tissue; host or cells: blood-brain barrier (brain capillaries) of living male C57BL/6 WT mice
Also noted: method as in PMID 7910522. The note with it: cited from earlier work.

Turning to ivermectin, the “Sensitivity of Mdr1a(-/-) mice compared to wild type controls” value is 100 fold.
